# Laboratory results from US10584105B2, “Immunoproteasome inhibitor analogs” (The Regents of the University of California, priority 2016, dated 2020).
# How the values were obtained:
# [1] = system: MYCN2 neuroblastoma cells; assay: Cell viability assay (MTS), MYCN2 neuroblastoma cells; conditions: highest concentration tested (1 μM), 24 hours exposure
# [2] = target: immunoproteasome from human peripheral blood mononuclear cells (PBMCs), C-L (β1) activity (Homo sapiens, UniProt P28065); assay: In vitro proteasome activity assay, immunoproteasome, C-L (β1); type: biochemical
# [3] = system: SK—N—Be(2)c neuroblastoma cells; assay: Cell viability assay (MTS), SK—N—Be(2)c neuroblastoma cells; conditions: highest concentration tested (1 μM), 24 hours exposure
# [4] = system: SK—N—SH neuroblastoma cells; assay: Cell viability assay (MTS), SK—N—SH neuroblastoma cells; conditions: highest concentration tested (1 μM), 24 hours exposure
# [5] = target: immunoproteasome from human peripheral blood mononuclear cells (PBMCs), CT-L (β5) activity (Homo sapiens, UniProt P20618+P28062); assay: In vitro proteasome activity assay, immunoproteasome, CT-L (β5); type: biochemical
smiles,measurement,setting,value
"CC(C)[C@H](NC(=O)c1cnccn1)C(=O)N[C@H]1CSCCNC(=O)/C=C/[C@H](C)NC1=O [Compound 6, N—((S)-3-Methyl-1-(((8S,11R,E)-8-methyl-5,10-dioxo-1-thia-4,9-diazacyclododec-6-en-11-yl)amino)-1-oxobutan-2-yl)pyrazine-2-carboxamide]",effect on viability of MYCN2 cells,[1],minimal effects
same,effect on C-L activity of the immunoproteasome,[2],no effect
same,effect on viability of SK—N—Be(2)c cells,[3],minimal effects
same,effect on viability of SK—N—SH cells,[4],minimal effects
same,effect on CT-L (chymotrypsin-like) activity of the immunoproteasome (FIG. 5),"[5]; 1.0 μM, 2 hours",stimulate
same,effect on CT-L activity of the immunoproteasome,[5]; at ≤10 μM,no effect
